In ChEMBL document CHEMBL1123431, “Nonquaternary cholinesterase reactivators. 4. Dialkylaminoalkyl thioesters of alpha-keto thiohydroximic acids as reactivators of ethyl methylphosphonyl- and 1,2,2-trimethylpropyl methylphosphonyl-acetylcholinesterase in vitro” (1986):

Key:
[1] = Partition coefficient (logD7.6); conditions: octanol/water, pH 7.6
[2] = Dissociation constant (pKa) (for oxime acid)

| SMILES | logD [1] | pKa [2] |
| --- | --- | --- |
| COc1ccc(C(=O)/C(=N/O)SCCCN(C)C)cc1.O=C(O)C(=O)O | 0.49 | – |
| CN(C)CCS/C(=N\O)C(=O)c1cccc2ccccc12.Cl | 2.32 | 7.1 |
| CC[N+](C)(CC)CCS/C(=N\O)C(=O)c1ccc(Cl)cc1.[Cl-] | -0.42 | 7.17 |
| CCN(CC)CCS/C(=N\O)C(=O)c1ccc(OC)cc1 | 1.43 | 7.65 |
| CC(C)N(CCS/C(=N\O)C(=O)c1ccc(Cl)cc1)C(C)C.Cl | – | 7.2 |
| CCN(CC)CCS/C(=N\O)C(=O)c1ccc(Br)cc1.Cl | 2.41 | 7.2 |
| CC[N+](C)(CC)CCS/C(=N\O)C(=O)c1ccc(F)cc1.[Cl-] | -1.17 | 7.31 |
| COc1ccc(C(=O)/C(=N/O)SCC[N+](C)(C)C)cc1.[Cl-] | -1.96 | 7.71 |
| CN(C)CCS/C(=N\O)C(=O)c1ccc(F)cc1 | 1.15 | 7.54 |
| CC[N+](C)(CC)CCS/C(=N\O)C(=O)c1ccc(OC)cc1.[Cl-] | -1.6 | 7.7 |
| CN(C)CCS/C(=N\O)C(=O)c1ccc(Br)cc1.Cl | 1.7 | 7.36 |
| CCN(CC)CCS/C(=N\O)C(=O)c1ccc(C#N)cc1.Cl | – | 7.02 |
| C[N+](C)(C)CCS/C(=N\O)C(=O)c1ccc(Br)cc1.[I-] | -0.55 | 7.18 |
| Cc1ccc(C(=O)/C(=N/O)SCCN(C)C)cc1.Cl | 1.52 | 7.76 |
| CCCS/C(=N\O)C(=O)c1ccc(Br)cc1 | 3.38 | 8.45 |
| COc1ccc(C(=O)/C(=N/O)SCCN(C)C)cc1 | 1.07 | 7.88 |
| C[N+](C)(C)CCS/C(=N\O)C(=O)c1ccc(Cl)cc1.[Cl-] | -0.8 | 7.19 |
| CN(C)CCS/C(=N\O)C(=O)c1ccc(Cl)cc1.Cl | 1.74 | 7.57 |
| Cc1ccc(C(=O)/C(=N/O)SCC[N+](C)(C)C)cc1.[Cl-] | -1.44 | 7.57 |
| CCN(CC)CCS/C(=N\O)C(=O)c1ccc(Cl)cc1.Cl | 1.97 | 7.42 |
| CC[N+](C)(CC)CCS/C(=N\O)C(=O)c1ccc(C#N)cc1.[Cl-] | – | 6.72 |
| C[N+](C)(C)CCS/C(=N\O)C(=O)c1ccc(F)cc1.[Cl-] | -1.55 | 7.36 |
| CN(C)CCCS/C(=N\O)C(=O)c1ccc(Br)cc1.O=C(O)C(=O)O | – | 7.41 |
